This note sets out measurements from ChEMBL document CHEMBL6182939, “Searching for Synthetic Opioid Rescue Agents. 2: Identification of an Ultra-Potent Synthetic Opioid Rescue Agent” (J Med Chem, 2025).

The chains behind the UniProt entries cited, without tags or fusion partners.
UniProt P10635, whole entry: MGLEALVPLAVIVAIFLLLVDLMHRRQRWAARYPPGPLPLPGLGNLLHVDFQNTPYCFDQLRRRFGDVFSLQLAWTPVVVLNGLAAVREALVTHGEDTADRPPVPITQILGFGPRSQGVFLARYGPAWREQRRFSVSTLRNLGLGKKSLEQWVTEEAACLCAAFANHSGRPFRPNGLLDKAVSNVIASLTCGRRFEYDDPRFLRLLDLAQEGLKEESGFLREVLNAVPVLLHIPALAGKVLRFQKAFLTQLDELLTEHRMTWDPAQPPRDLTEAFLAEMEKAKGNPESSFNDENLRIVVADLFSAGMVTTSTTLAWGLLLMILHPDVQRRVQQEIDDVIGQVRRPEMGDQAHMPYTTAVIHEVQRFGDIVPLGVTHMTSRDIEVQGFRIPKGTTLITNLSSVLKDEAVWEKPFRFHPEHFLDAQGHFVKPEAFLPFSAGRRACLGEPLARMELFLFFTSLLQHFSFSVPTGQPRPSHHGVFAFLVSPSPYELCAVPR
UniProt P11712, whole entry: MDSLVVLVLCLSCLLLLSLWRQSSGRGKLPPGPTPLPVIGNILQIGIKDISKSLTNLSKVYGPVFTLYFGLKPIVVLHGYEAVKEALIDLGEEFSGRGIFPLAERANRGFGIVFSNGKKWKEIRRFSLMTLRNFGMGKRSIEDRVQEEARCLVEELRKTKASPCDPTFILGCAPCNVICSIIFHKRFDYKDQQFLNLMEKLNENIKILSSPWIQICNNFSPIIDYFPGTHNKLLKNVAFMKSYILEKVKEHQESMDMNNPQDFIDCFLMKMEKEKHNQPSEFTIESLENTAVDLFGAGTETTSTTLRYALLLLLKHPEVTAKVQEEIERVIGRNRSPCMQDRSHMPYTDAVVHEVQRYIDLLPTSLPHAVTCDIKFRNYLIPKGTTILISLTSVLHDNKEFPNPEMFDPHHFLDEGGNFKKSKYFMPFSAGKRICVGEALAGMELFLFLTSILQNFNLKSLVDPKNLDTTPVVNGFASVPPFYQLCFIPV
UniProt P08684, whole entry: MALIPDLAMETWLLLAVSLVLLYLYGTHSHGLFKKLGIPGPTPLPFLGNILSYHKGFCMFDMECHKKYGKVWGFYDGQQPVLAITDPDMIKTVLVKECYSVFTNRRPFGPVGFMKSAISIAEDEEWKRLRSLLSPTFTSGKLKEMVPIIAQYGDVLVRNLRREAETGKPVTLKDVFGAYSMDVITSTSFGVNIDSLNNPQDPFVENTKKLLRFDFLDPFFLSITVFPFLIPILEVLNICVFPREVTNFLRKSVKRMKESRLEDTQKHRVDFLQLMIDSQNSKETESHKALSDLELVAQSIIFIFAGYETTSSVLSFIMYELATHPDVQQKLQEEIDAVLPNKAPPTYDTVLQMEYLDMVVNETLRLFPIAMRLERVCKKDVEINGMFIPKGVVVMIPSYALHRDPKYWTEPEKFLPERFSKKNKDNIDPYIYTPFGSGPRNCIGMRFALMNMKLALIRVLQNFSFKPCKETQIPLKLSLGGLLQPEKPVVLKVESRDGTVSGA
UniProt P33261, whole entry: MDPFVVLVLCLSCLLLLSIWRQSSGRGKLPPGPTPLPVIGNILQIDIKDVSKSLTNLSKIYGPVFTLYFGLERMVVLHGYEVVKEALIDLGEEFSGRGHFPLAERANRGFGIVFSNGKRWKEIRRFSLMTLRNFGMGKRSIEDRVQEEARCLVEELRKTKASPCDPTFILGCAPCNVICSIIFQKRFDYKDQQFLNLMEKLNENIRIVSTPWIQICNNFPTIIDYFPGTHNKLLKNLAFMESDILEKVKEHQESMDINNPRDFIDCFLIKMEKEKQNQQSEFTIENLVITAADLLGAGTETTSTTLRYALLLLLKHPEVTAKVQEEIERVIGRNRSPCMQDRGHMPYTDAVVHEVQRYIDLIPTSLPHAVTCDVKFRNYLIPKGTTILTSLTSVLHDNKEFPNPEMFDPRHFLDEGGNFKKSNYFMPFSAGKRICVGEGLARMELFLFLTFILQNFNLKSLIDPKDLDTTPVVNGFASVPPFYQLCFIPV
UniProt P05177, whole entry: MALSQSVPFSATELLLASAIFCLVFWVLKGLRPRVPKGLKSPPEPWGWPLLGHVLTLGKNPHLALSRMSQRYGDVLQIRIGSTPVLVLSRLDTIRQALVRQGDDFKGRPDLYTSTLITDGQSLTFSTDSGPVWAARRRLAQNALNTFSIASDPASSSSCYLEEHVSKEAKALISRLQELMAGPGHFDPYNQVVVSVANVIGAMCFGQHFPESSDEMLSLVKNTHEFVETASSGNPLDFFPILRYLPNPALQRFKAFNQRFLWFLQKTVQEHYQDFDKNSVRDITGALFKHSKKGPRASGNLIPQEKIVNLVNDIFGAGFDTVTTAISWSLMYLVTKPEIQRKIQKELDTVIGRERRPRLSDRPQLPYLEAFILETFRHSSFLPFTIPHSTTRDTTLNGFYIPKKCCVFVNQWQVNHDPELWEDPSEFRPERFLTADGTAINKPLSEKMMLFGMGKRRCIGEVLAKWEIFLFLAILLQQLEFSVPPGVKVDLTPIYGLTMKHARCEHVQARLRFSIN

Bounds are passed on as bounds.

What all share (format): ADME, Microsome
For data set [1], the target named is Cytochrome P450 2D6 (Homo sapiens, UniProt P10635). The data set can be described thus: Inhibition of CYP2D6 in human liver microsomes at 10 uM relative to control. Background: Microsomes from liver hold many membrane-bound enzymes, among them those of drug oxidation.
Data set [2] is described as follows: Metabolic stability in mouse liver microsomes assessed as half life.
Data set [3] has as its target Cytochrome P450 2C9 (Homo sapiens, UniProt P11712). The data set can be described thus: Inhibition of CYP2C9 in human liver microsomes at 10 uM relative to control.
Data set [4] can be described thus: Metabolic stability in human liver microsomes assessed as half life.
Data set [5] deals with Cytochrome P450 3A4 (Homo sapiens, UniProt P08684). The data set can be described thus: Inhibition of CYP3A4 in human liver microsomes at 10 uM relative to control.
For data set [6], the target named is Cytochrome P450 2C19 (Homo sapiens, UniProt P33261). Put plainly: Inhibition of CYP2C19 in human liver microsomes at 10 uM relative to control.
Data set [7] concerns the target Cytochrome P450 1A2 (Homo sapiens, UniProt P05177). The data set can be described thus: Inhibition of CYP1A2 in human liver microsomes at 10 uM relative to control.

As for `COc1cc(CNCCC2CCCCC2)ccc1Oc1ccc(C(N)=O)cn1`, the “inhibition (INH)” value in data set [1] was 46.4%; in data set [3], 4.9%; in data set [5], 0%; in data set [6] it was 40.8%; in data set [7] it was 0%. The t1/2 in data set [2] was 8.3 min; in data set [4], more than 2.42 h.
